Protein sequences, listed by entry. Tags and fused reporters are not part of them.
UniProt P21397, whole entry: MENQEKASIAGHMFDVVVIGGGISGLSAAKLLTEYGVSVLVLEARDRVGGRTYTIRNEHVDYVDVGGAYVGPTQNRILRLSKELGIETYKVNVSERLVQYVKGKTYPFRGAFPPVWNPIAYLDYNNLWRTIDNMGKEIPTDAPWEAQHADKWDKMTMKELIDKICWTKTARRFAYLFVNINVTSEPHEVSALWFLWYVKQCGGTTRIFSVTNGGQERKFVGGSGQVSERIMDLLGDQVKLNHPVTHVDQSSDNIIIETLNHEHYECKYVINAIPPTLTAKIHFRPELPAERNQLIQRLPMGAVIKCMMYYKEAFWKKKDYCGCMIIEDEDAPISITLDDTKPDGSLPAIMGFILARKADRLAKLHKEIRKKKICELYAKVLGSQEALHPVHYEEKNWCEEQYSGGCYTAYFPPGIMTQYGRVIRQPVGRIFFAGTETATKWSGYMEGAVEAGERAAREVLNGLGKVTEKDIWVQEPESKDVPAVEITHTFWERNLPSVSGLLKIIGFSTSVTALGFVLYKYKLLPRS

In publication PMC11204507, “Mechanistic Insights into the Neurotoxicity of 2,5-Dimethoxyphenethylamines (2C) and Corresponding N-(2-methoxybenzyl)phenethylamine (NBOMe) Drugs” (Journal of Xenobiotics, 2024):

Target: hMAO-A (Homo sapiens, UniProt P21397)
Experiment: hMAO inhibitory activity, kynuramine to 4-hydroxyquinoline
Conditions: 10 µM, kynuramine substrate

C#CCN(C)CCCOc1ccc(Cl)cc1Cl [clorgyline, reference compound]
percentage of inhibition of hMAO-A: 98.2%
